Values of other authors, collected in patent US20030013883A1, “Tropane analogs binding to monoamine transporters” (priority 2000, published 2003).

Sequences of proteins named here, by UniProt entry; tags and fusion partners are left off. Residues count along the entry.
UniProt Q63380, 1-617: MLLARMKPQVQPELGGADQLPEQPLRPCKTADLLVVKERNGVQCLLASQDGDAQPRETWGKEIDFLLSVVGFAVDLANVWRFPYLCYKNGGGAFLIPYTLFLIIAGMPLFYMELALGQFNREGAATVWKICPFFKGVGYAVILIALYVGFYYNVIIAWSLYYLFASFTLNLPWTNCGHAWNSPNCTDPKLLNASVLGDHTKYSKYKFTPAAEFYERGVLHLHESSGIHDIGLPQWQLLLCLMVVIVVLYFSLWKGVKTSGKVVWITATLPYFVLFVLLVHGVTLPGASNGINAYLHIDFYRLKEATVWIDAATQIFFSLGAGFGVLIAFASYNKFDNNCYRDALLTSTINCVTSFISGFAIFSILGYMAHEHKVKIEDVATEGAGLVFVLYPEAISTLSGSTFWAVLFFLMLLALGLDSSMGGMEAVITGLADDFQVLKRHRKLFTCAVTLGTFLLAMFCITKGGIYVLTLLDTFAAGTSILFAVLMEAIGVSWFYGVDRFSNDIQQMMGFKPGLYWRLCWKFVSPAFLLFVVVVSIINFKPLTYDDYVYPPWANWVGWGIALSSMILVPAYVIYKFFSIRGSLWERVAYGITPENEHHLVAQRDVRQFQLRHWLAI

Target: T1, norepinephrine transporter (NET) (Rattus norvegicus, UniProt Q63380)
T1 construct: For NET assay, the thawed homogenate was suspended in NET assay buffer; from tissue; host or cells: rat cerebral cortex
Details: radioligand constant used in Cheng-Prusoff conversion; cited from earlier work

## [^3H]nisoxetine
  Kd: 0.8 nM
